The subject of this experiment is standard pool of bacteria, yeasts, and molds obtained from American Type Culture Collection (ATCC) that are common contaminants in coatings. Nature of the experiment: Microbial resistance challenge test (three inoculations at 7-d intervals, streak plating on TSA and PDA).

On to `CCC(C)(C)OO`, for which the “effectiveness as preservative for the aqueous dispersion of opaque polymers” value is listed as “effective”.
